Measurements from patent publication US4450165A, “Dihydropyridine compounds” (Yoshitomi Pharmaceutical Industries, Ltd., priority 1981, dated 1984).

Tested on: vertebral blood flow (right vertebral artery)
Test: Effect on vertebral blood flow
Type: in vivo, mongrel dogs
Settings: anesthetized dogs
Experimental: Under the artificial ventilation, the right vertebral artery was perfused with the arterial blood from the left carotid artery through a short bypass. The perfused flow was measured by means of an electromagnetic flow-meter. The test compound was dissolved in an aqueous solution containing 0.1% dimethyl sulfoxide and 0.01% polyoxyethylene hydrogenated castor oil (cremophor EL®), and injected into the afferent tube. […] The duration was measured as the time for which the half maximum response remained.

COc1ccc(Cc2nccc3cc(OC)c(OC)cc23)cc1OC [Papaverine]
Duration (time for which the half maximum response remained): 0.4 min
